Values of other authors, collected in patent publication US20030158089A1, “Administrative agents via the SMVT transporter” (priority 2002, published 2003).

System: human or rat SMVT
Details: voltage-clamped Xenopus oocytes; cited from earlier work

## O=C(O)CCCC[C@@H]1SC[C@@H]2NC(=O)N[C@@H]21 [biotin]
  Vmax: 25-50 pmol/oocyte/hour
  maximal sodium-dependent electrogenic response: 50-100 nA
